# Most compounds without a hit are left out; they make up all but 16% or so of the library.
# miR-21 reporter = raises the signal of a miR-21 reporter. HeLa miR-21 FLuc reporter, luciferase, 48 h. 340,000 tested, under 10 active. Potency, µM (highest dose often 38.3 µM), for the others: at the highest dose reporter change, positive = more light; active = well fitted rising curve with a large enough effect; inconclusive = small, poorly fitted or top-dose-only effect; inactive = no such curve, though single readings can be large or run the other way;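 note: % of control where 0% means no effect; miR-21 action dims this reporter so a rising signal means less miR-21 action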
#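 HeLa cells endogenously expressing miR-21, stably carrying CMV-driven firefly luciferase with a downstream miR-21 binding site, 2000 cells/well. Titrations up to approximately 40 uM, 48 hours; luciferase luminescence read.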
# TDP1 cell CPT = growth inhibition of DT40 Tdp1-/-;hTDP1 cells with camptothecin (screen for TDP1 inhibitors); 420,000 compounds, 12% hits; chicken DT40 Tdp1-/-;hTDP1 cells + 20 nM CPT, ATP luminescence, 48 h; Potency, µM (doses to about 46.2 µM), inactives show at the highest dose activity change, negative = growth inhibition, most hits filed as inhibitors; also: potency is read from the fitted curve at half-maximal effect; % is scaled to controls: 0 for no effect and ±100 for the full control effect; nearly all actives have a fitted effect of over 55% in size
#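 Cell growth measured by CellTiter-Glo luminescence after a minimum 48 h, 37 C compound exposure with 20 nM CPT in Tdp1-knockout DT40 cells stably expressing hTDP1, seeded 400/well; qHTS titration format.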
# DT40 TDP1 no CPT = qHTS for Inhibitors of human tyrosyl-DNA phosphodiesterase 1 (TDP1): qHTS in cells in absence of CPT; DT40 Tdp1-/- hTDP1 cells, no CPT, ATP luminescence, 48 h; Potency, µM (top dose mostly 46.2 µM), for inactives: at the top dose activity change, negative = growth inhibition, usual class: inhibitors; 420,000 compounds, 15% hits; AID 686978, 2013; also: potency is read from the fitted curve at half-maximal effect; % is scaled to controls: 0 for no effect and ±100 for the full control effect; nearly all actives have a fitted effect of over 55% in size
#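 Stably hTDP1-transfected Tdp1-null chicken DT40 cells were treated with library compounds minus camptothecin and grown for at least 48 hr at 37 °C, after which cellular ATP was quantified by luminescence.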
# TDP1 block = blocks human tyrosyl-DNA phosphodiesterase 1; recombinant TDP1, AlphaScreen DNA substrate cleavage; Potency, µM (series often up to 130 µM), for the others: top-dose activity change, negative = inhibition, most hits filed as inhibitors; 350,000 compounds, 0.28% hits; also: potency is read from the fitted curve at half-maximal effect; % is scaled to controls: 0 for no effect and ±100 for the full control effect; nearly all actives have a fitted effect of over 40% in size
#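 Tdp1 1 nM final; 15 min RT w/ cpd; substrate 15 nM, 5 min; beads 10 ug/ml, 10 min; AlphaScreen read. Neg ctrl: no enzyme.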
# uPA generation = blocks generation of uPA at the cell surface. AID 540303. Potency, µM (series often up to 38.3 µM), inactives show at the highest dose activity change, negative = inhibition, usual class: inhibitors. 330,000 compounds, 0.31% hits. cell surface uPA generation assay, qHTS; active = well fitted inhibition curve with a large enough effect; inconclusive = small, poorly fitted or top-dose-only effect; inactive = no such curve, though single readings can be large or run the other way; tested in mouse RAW 264.7 cells; also: potency is read from the fitted curve at half-maximal effect; % is scaled to controls: 0 for no effect and ±100 for the full control effect; nearly all actives have a fitted effect of over 55% in size
# The depositor's hits bear a star; ? = inconclusive; / = no result given; ! = repeats disagree; [ ] = remark or other dose. Unless noted, calls follow the shape of the dose curve; as a rule, active = well fitted curve in the direction sought with a large enough effect; inconclusive = small, poorly fitted or top-dose-only effect, or another doubt; inactive = no such curve, though single readings can be large; an effect the other way counts as inactive or inconclusive.
[1] COc1ccc(-c2nc(C(N)=O)c3[nH]c(=O)n(-c4ccccc4OC)c3n2)c(OC)c1
[2] O=c1oc(Cl)c(Cl)c2ccccc12
[3] O=C(CN1CCCC1)Nc1ccc(Cl)cc1C(=O)c1ccccc1
[4] CN(C)CCC=C1c2ccccc2CCc2ccccc21
[5] Cc1ccccc1C1=NCC(=S)Nc2ccc(Cl)cc21
[6] OCCN1CCN(CC/C=C2/c3ccccc3Sc3ccc(Cl)cc32)CC1
[7] CN(C)CC/C=C1\c2ccccc2Sc2ccc(Cl)cc21
[8] FC(F)(F)c1ccc2c(c1)ncn2C1CCN(Cc2nnnn2C2CCCCC2)CC1
assay / compound	1	2	3	4	5	6	7	8
miR-21 reporter	0%	/	0%	0%	-2%	/	6%	-4%
TDP1 cell CPT	?	3.3µM*	?	24µM*!	?	?	24µM*	?
DT40 TDP1 no CPT	16µM*	2.9µM*	-20%	27µM*!	?	23µM*	21µM*	?
TDP1 block	4%	3%[56.1 µM]	0%	1%	1%[56.1 µM]	/	9%	-2%
uPA generation	11µM*	-4%	-1%	20%	-1%	-17%	-10%	1%

[9] c1cnc2ccc(C(c3nnnn3C3CCCCC3)N3CCN(C4CCCCC4)CC3)cc2c1 (stereo unspecified)
[10] CC1=NN=C(c2ccc(N)cc2)c2cc3c(cc2C1)OCO3
[11] CC1Cc2cc3c(cc2C(c2ccc(N)cc2)=NN1)OCO3 (stereo unspecified)
[12] COc1c2c(cc3c1OCO3)CC[N+](C)=C2
[13] C=Cc1cc(OC)c2c(c1)c(=O)oc1c2cc(OC)c2c(O)ccc(C3OC(C)C(O)C(C)(O)C3O)c21 (stereo unspecified)
[14] CCN(CC)C(=O)C(C(=O)c1cccc([N+](=O)[O-])c1)n1cc(Cl)ccc1=O (stereo unspecified)
[15] Cc1ccc(Cn2c(C(CO)Nc3nc(-c4ccc(F)cc4)cs3)nc3ccccc32)cc1 (stereo unspecified)
[16] Cc1ccc(-c2csc(NC(CO)c3nc4ccccc4n3CCOCCO)n2)cc1 (stereo unspecified)
assay / compound	9	10	11	12	13	14	15	16
miR-21 reporter	/	/	/	2%	/	2%	/	/
TDP1 cell CPT	13µM*	30µM*	/	-26%[9.04 µM]	0.16µM*	-20%	?	?
DT40 TDP1 no CPT	13µM*	27µM*	/	-12%[9.04 µM]	0.21µM*	?	16µM*	23µM*
TDP1 block	/	-7%[56.1 µM]	13%	1%	/	6%	/	/
uPA generation	-12%	6%	/	3%	-11%	8%	?	-9%

[17] CO/C1=C\C(C)=C\[C@@H](C)[C@@H](O)[C@@H](C)C/C(C)=C/C=C\[C@H](OC)C([C@@H](C)[C@@H](O)[C@H](C)[C@@]2(O)C[C@@H](O)[C@H](C)C(C(C)C)O2)OC1=O (stereo partly specified)
[18] CC(=O)OC1N=C(c2ccccc2Cl)c2cc(Br)ccc2N(C)C1=O (stereo unspecified)
[19] CCN1CCN(Cc2ccc(NC(=O)c3cc(NC(=O)c4cc(C)on4)cc(OC)c3)cc2C(F)(F)F)CC1
[20] CCN1CCN(Cc2ccc(NC(=O)c3ccc(C)c(NC(=O)C(=O)c4c[nH]c5ccccc45)c3)cc2C(F)(F)F)CC1
[21] CCCCOCN(C(=O)CCl)c1c(CC)cccc1CC
[22] COc1ccccc1N=Cc1c(O)n(C)c(=O)n(C)c1=O
[23] CC(Cc1ccccc1)NCC(=O)Nc1cc(N(C)C)nc2ccccc12 (stereo unspecified)
[24] Cc1ccccc1NC(=O)CSc1nc2ccccc2c2nc(CCn3c(C)nc4ccccc43)nn12
assay / compound	17	18	19	20	21	22	23	24
miR-21 reporter	/	-5%	12%	?	/	-5%	18%	10%
TDP1 cell CPT	/	-11%	15µM*	2.6µM*	/	4%	?	15µM*
DT40 TDP1 no CPT	/	?	16µM*	2.6µM*	/	-6%	?	18µM*
TDP1 block	7%[3.34 µM]	/	/	8%	16%	-2%	/	3%
uPA generation	/	-12%	?	?	/	5%	-7%	/

# Exported as labelled records: entries from further up
20	CCN1CCN(Cc2ccc(NC(=O)c3ccc(C)c(NC(=O)C(=O)c4c[nH]c5ccccc45)c3)cc2C(F)(F)F)CC1
  miR-21 reporter: ?	TDP1 cell CPT: 2.6µM*	DT40 TDP1 no CPT: 2.6µM*	TDP1 block: 8%	uPA generation: ?
21	CCCCOCN(C(=O)CCl)c1c(CC)cccc1CC
  miR-21 reporter: /	TDP1 cell CPT: /	DT40 TDP1 no CPT: /	TDP1 block: 16%	uPA generation: /
22	COc1ccccc1N=Cc1c(O)n(C)c(=O)n(C)c1=O
  miR-21 reporter: -5%	TDP1 cell CPT: 4%	DT40 TDP1 no CPT: -6%	TDP1 block: -2%	uPA generation: 5%

# Next section.
[25] Nc1ccc([N+](=O)[O-])cc1N
[26] CC[C@@H](C(=O)[C@@H](C)[C@@H](O)[C@H](C)[C@@H]1O[C@@H]([C@@H](CC)C(=O)O)CC[C@@H]1C)[C@H]1O[C@]2(C=C[C@@H](O)[C@]3(CC[C@@](C)([C@H]4CC[C@](O)(CC)[C@H](C)O4)O3)O2)[C@H](C)C[C@@H]1C
[27] O=c1c2ccccc2[nH]c(=S)n1-c1cccc(C(F)(F)F)c1
[28] C[C@H]1CC2C3CC=C4C[C@@H](O)CC[C@]4(C)C3CC[C@]2(C)[C@H]1O (stereo partly specified)
[29] C[C@@H]1CC2C3CC=C4C[C@@H](O)CC[C@]4(C)C3CC[C@]2(C)[C@H]1O (stereo partly specified)
[30] C[C@]12CC[C@H](N)CC1=CCC1C2CC[C@@]2(C)C1CC[C@@H]2O (stereo partly specified)
[31] C[C@]12CC[C@@H](O)CC1=CCC1C2CC[C@@]2(C)C1CC[C@@H]2N (stereo partly specified)
[32] CC(Cl)(Cl)Cl
[33] Cc1ccc(S(=O)(=O)N(C)C[C@H]2Oc3ncc(Br)cc3C(=O)N([C@H](C)CO)C[C@@H]2C)cc1
[34] Cc1ccc(S(=O)(=O)N(C)C[C@@H]2OCc3ccccc3-c3c(n(C)c4ccccc34)C(=O)N([C@H](C)CO)C[C@@H]2C)cc1
[35] COc1ccc(NC(=O)Nc2ccc3c(c2)C(=O)N([C@H](C)CO)C[C@H](C)[C@@H](CN(C)S(=O)(=O)c2ccc(F)cc2)O3)cc1
assay / compound	25	26	27	28	29	30	31	32	33	34	35
miR-21 reporter	/	/	/	/	/	/	/	/	/	/	/
TDP1 cell CPT	/	0.58µM*	-24%	-6%	-21%	18µM*	?	/	-30%	23µM*	?
DT40 TDP1 no CPT	/	0.52µM*	?	3%	?	?	21µM*	/	23µM*	?	?
TDP1 block	15%	/	/	0%	0%	-1%	1%	7%	/	/	4%
uPA generation	/	13%	/	2%	0%	-12%	-2%	/	/	/	-10%

# Bioassay records deposited in PubChem by National Center for Advancing Translational Sciences (NCATS).
